From patent US8093272B2 (priority 2004, dated 2012)

Chains of the proteins cited; added tags and fusions are not shown. Lines headed by an entry give the natural chain unless they say otherwise; changes in a name come on top.
UniProt P41146: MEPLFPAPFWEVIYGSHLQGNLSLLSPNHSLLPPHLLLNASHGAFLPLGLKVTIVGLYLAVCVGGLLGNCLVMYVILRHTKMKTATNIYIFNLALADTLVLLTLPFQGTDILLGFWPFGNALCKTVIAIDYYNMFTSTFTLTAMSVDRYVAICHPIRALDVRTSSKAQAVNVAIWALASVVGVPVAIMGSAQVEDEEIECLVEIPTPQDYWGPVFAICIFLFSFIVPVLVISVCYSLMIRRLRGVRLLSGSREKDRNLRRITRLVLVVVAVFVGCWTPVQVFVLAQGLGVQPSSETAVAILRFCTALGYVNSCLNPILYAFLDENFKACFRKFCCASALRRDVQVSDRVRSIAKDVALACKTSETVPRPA
UniProt P35372, whole entry, looked up: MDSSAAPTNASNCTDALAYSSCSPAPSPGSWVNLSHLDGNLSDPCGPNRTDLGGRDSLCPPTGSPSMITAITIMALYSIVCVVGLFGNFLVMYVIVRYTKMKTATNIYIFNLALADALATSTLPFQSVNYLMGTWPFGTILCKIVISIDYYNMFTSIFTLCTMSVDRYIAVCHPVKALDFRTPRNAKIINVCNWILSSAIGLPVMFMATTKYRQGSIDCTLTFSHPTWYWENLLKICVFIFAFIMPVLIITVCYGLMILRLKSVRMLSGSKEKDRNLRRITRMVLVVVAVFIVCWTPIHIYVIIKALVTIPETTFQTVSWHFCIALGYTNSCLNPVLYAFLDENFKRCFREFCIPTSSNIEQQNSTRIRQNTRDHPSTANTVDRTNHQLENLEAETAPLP

Columns and labels:
ORL1 receptor = ORL1 receptor (Homo sapiens, UniProt P41146); assay: Measurement of ORL1 binding (3H-nociceptin/orphanin FQ, membranes of recombinant CHO-ORL1 cells); conditions: c=1 μM; 3H-nociceptin/orphanin FQ 0.5 nM
human μ-opiate receptor = human μ-opiate receptor (Homo sapiens, UniProt P35372); assay: Measurement of μ-binding ([3H]-naloxone displacement, CHO-K1 membrane preparation, WGA-SPA beads); conditions: test substance 1 μM; displacement of [3H]-naloxone 1 nmol/l

SMILES	ORL1-binding, [1 μM], % inhibition (ORL1 receptor) [%]	μ-binding [1 μM], % inhibition (human μ-opiate receptor) [%]
Cc1sc(-c2ccccc2)nc1CC(=O)NC1CCC(c2cccs2)(N(C)C)CC1 (stereo not drawn)	55	92
CN(C)C1(CCc2ccccc2)CCC(NC(=O)c2cccnc2Oc2ccccc2)CC1 (stereo not drawn)	–	65
CN(C)C1(Cc2ccccc2)CCC(NC(=O)c2cccnc2Oc2ccccc2)CC1 (stereo not drawn)	–	53
CN(C)C1(c2cccc(F)c2)CCC(NC(=O)c2cccnc2Sc2ccc(Cl)cc2)CC1 (stereo not drawn)	55	92
Cc1onc(-c2ccccc2Cl)c1C(=O)NC1CCC(c2cccc(F)c2)(N(C)C)CC1 (stereo not drawn)	92	67
CN(C)C1(c2ccccn2)CCC(NC(=O)c2cccnc2Oc2ccccc2)CC1 (stereo not drawn)	–	75
CN(C)C1(c2cccs2)CCC(NC(=O)c2cccnc2Oc2ccccc2)CC1 (stereo not drawn)	67	89
CN(C)C1(CCc2ccccc2)CCC(NC(=O)c2ccc(Cc3ccccc3)o2)CC1 (stereo not drawn)	–	65
Cc1onc(-c2c(Cl)cccc2Cl)c1C(=O)NC1CCC(Cc2ccccc2)(N2CCCCC2)CC1 (stereo not drawn)	–	77
Cc1onc(-c2ccccc2Cl)c1C(=O)NC1CCC(Cc2cccc(Cl)c2)(N(C)C)CC1 (stereo not drawn)	–	65
Cc1onc(-c2c(F)cccc2Cl)c1C(=O)NC1CCC(c2ccccc2)(N(C)C)CC1 (stereo not drawn)	69	78
CN(C)C1(Cc2ccccc2F)CCC(NC(=O)c2cccnc2Sc2ccc(Cl)cc2)CC1 (stereo not drawn)	–	71
CN(C)C1(c2cccc(F)c2)CCC(NC(=O)c2cnn(-c3ccc(Cl)cc3)c2C(F)(F)F)CC1 (stereo not drawn)	–	77
Cc1onc(-c2ccccc2Cl)c1C(=O)NC1CCC(CCc2ccccc2)(N(C)C)CC1 (stereo not drawn)	–	77
Cc1onc(-c2c(Cl)cccc2Cl)c1C(=O)NC1CCC(Cc2ccccc2F)(N(C)C)CC1 (stereo not drawn)	–	70
Cc1onc(-c2c(Cl)cccc2Cl)c1C(=O)NC1CCC(CCc2ccccc2)(N(C)C)CC1 (stereo not drawn)	–	62
O=C(NC1CCC(Cc2ccccc2)(N2CCCC2)CC1)c1cccnc1Oc1ccccc1 (stereo not drawn)	–	60
Cc1nn(-c2ccccc2)nc1C(=O)NC1CCC(c2ccccc2)(N2CCCCC2)CC1 (stereo not drawn)	52	94
Cc1sc(-c2ccccc2)nc1CC(=O)NC1CCC(c2ccccc2)(N2CCCCC2)CC1 (stereo not drawn)	–	59
CN(C)C1(Cc2ccccc2F)CCC(NC(=O)c2cccnc2Oc2ccccc2)CC1 (stereo not drawn)	–	53
Cc1ccccc1CC1(N(C)C)CCC(NC(=O)c2nn(-c3ccccc3)nc2C)CC1 (stereo not drawn)	–	73
Cc1ccccc1CC1(N(C)C)CCC(NC(=O)c2ccc(Cc3ccccc3)o2)CC1 (stereo not drawn)	–	62
Cc1cccc(CC2(N(C)C)CCC(NC(=O)c3ccc(Cc4ccccc4)o3)CC2)c1 (stereo not drawn)	–	60
Cc1nn(-c2ccccc2)nc1C(=O)NC1CCC(Cc2ccc(F)cc2)(N(C)C)CC1 (stereo not drawn)	–	69
Cc1ccccc1CC1(N(C)C)CCC(NC(=O)Cc2nc(-c3ccccc3)sc2C)CC1 (stereo not drawn)	–	58

SMILES	ORL1-binding, [1 μM], % inhibition (ORL1 receptor) [%]	μ-binding [1 μM], % inhibition (human μ-opiate receptor) [%]
Cc1onc(-c2c(Cl)cccc2Cl)c1C(=O)NC1CCC(Cc2ccccc2)(N2CCCC2)CC1 (stereo not drawn)	68	99
Cc1onc(-c2c(Cl)cccc2Cl)c1C(=O)NC1CCC(c2cccc(F)c2)(N(C)C)CC1 (stereo not drawn)	64	65
Cc1nn(-c2ccccc2)nc1C(=O)NC1CCC(CCc2ccccc2)(N(C)C)CC1 (stereo not drawn)	–	55
Cc1onc(-c2c(F)cccc2Cl)c1C(=O)NC1CCC(Cc2ccccc2)(N2CCCC2)CC1 (stereo not drawn)	–	54
CN(C)C1(Cc2ccccc2)CCC(NC(=O)c2ccc(Cc3ccccc3)o2)CC1 (stereo not drawn)	–	77
Cc1nn(-c2ccccc2)nc1C(=O)NC1CCC(Cc2cccc(Cl)c2)(N(C)C)CC1 (stereo not drawn)	–	55
CN(C)C1(c2ccccn2)CCC(NC(=O)c2cccnc2Sc2ccc(Cl)cc2)CC1 (stereo not drawn)	50	92
Cc1onc(-c2c(F)cccc2Cl)c1C(=O)NC1CCC(CCc2ccccc2)(N(C)C)CC1 (stereo not drawn)	–	80
CN(C)C1(Cc2ccccc2F)CCC(NC(=O)c2ccc(Cc3ccccc3)o2)CC1 (stereo not drawn)	–	68
Cc1oc(-c2ccc(Cl)cc2)cc1C(=O)NC1CCC(c2cccc(F)c2)(N(C)C)CC1 (stereo not drawn)	74	83
Cc1sc(-c2ccccc2)nc1CC(=O)NC1CCC(Cc2cccc(F)c2)(N(C)C)CC1 (stereo not drawn)	–	53
CN(C)C1(Cc2cccc(F)c2)CCC(NC(=O)c2ccc(Cc3ccccc3)o2)CC1 (stereo not drawn)	–	60
CN(C)C1(Cc2cccc(Cl)c2)CCC(NC(=O)c2cnn(-c3ccc(Cl)cc3)c2C(F)(F)F)CC1 (stereo not drawn)	–	56
CN(C)C1(Cc2cccc(Cl)c2)CCC(NC(=O)c2cccnc2Sc2ccc(Cl)cc2)CC1 (stereo not drawn)	–	59
Cc1sc(-c2ccccc2)nc1CC(=O)NC1CCC(CCc2ccccc2)(N(C)C)CC1 (stereo not drawn)	–	77
CCCc1c(C(=O)NC2CCC(c3cccc(F)c3)(N(C)C)CC2)cnn1-c1ccccc1 (stereo not drawn)	80	100
Cc1onc(-c2c(F)cccc2Cl)c1C(=O)NC1CCC(c2cccc(F)c2)(N(C)C)CC1 (stereo not drawn)	71	66
Cc1ccc(CC2(N(C)C)CCC(NC(=O)c3nn(-c4ccccc4)nc3C)CC2)cc1 (stereo not drawn)	–	64
Cc1onc(-c2ccccc2Cl)c1C(=O)NC1CCC(c2ccccc2)(N(C)C)CC1 (stereo not drawn)	88	85
CN(C)C1(c2ccccc2)CCC(NC(=O)c2cccnc2Oc2ccccc2)CC1 (stereo not drawn)	63	92
O=C(NC1CCC(Cc2ccccc2)(N2CCCC2)CC1)c1cccnc1Sc1ccc(Cl)cc1 (stereo not drawn)	–	78
O=C(NC1CCC(c2ccccc2)(N2CCCCC2)CC1)c1ccc(Cc2ccccc2)o1 (stereo not drawn)	–	74
Cc1cccc(CC2(N(C)C)CCC(NC(=O)c3nn(-c4ccccc4)nc3C)CC2)c1 (stereo not drawn)	–	58
Cc1nn(-c2ccccc2)nc1C(=O)NC1CCC(Cc2ccccc2)(N2CCCCC2)CC1 (stereo not drawn)	61	96
Cc1nn(-c2ccccc2)nc1C(=O)NC1CCC(c2ccccc2)(N(C)C)CC1 (stereo not drawn)	88	100
